Results as given in patent US20100029636A1, “Lck inhibitors” (priority 2006, published 2010).

The chains behind the UniProt entries cited, without tags or fusion partners.
UniProt P06239, whole entry: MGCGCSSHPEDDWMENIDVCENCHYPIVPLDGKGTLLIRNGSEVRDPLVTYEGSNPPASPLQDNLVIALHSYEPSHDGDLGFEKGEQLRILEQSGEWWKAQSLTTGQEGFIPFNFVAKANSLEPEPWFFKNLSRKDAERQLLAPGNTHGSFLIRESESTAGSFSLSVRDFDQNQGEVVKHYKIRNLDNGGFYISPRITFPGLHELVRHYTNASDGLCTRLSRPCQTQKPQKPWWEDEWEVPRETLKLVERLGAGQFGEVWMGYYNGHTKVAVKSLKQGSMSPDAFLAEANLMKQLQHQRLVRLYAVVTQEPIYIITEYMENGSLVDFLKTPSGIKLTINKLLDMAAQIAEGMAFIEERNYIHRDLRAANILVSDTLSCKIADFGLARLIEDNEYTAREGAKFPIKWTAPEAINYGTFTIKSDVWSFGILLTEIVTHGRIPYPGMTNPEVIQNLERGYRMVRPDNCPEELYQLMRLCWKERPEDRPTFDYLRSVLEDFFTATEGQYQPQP

Target: Lck (Homo sapiens, UniProt P06239)
Test: Biochemical Lck kinase assay (TR-FRET, LANCE)
Conditions: read-out: IC50 values in the Lck assay; 50% inhibition of the kinase reaction, at least 8 concentrations

SMILES: CN1CCN(c2cccc(-c3cnn4c(N)c(-c5ccc(NC(=O)Nc6ccc(F)cc6)cc5)cnc34)c2)CC1
- IC50: 18 nM

SMILES: CCCOC(=O)Nc1ccc(-c2cnc3c(-c4ccc(N5CCN(C)CC5)cc4)cnn3c2N)cc1
- IC50: 16 nM
